By UniProt entry, the sequences of proteins in these tests, tags left out.
UniProt P14902, whole entry: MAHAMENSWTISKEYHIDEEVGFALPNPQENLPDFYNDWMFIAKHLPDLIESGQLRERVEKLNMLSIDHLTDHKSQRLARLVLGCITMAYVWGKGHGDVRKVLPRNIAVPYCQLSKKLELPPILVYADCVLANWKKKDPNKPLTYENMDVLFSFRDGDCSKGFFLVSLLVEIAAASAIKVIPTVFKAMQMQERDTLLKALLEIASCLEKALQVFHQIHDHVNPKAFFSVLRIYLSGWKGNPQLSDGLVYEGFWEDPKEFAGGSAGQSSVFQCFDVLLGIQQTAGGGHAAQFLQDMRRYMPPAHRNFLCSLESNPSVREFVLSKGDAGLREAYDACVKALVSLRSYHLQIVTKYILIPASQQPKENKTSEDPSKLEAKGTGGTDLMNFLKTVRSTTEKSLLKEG

According to US12576087B2, “Aryloxypiperidine pyrazole compounds as indoleamine 2,3-dioxygenase inhibitors” (Merck Sharp & Dohme LLC, priority 2018, dated 2026):

Molecular target: IDO1 (Homo sapiens, UniProt P14902)
Test: IDO1 Cellular Assay in HeLa Cells Stimulated with IFNγ
Type: cell-based
Conditions: HeLa cells stimulated with IFNγ 100 ng/mL, about 48 hours

SMILES	EC50 [nM]
O=C(Cn1nc(C(=O)N2CC[C@H](O)[C@@H](F)C2)c2c1CCCC2)N1CCC(Oc2cccc(Cl)c2)CC1 [Example 42, 1-(4-(3-chlorophenoxy)piperidin-1-yl)-2-(3-((3S,4S)-3-fluoro-4-hydroxypiperidine-1-carbonyl)-4,5,6,7-tetrahydro-1H-indazol-1-yl)ethanone]	13.9
Cc1ccccc1OC1CCN(C(=O)Cn2nc(C(=O)N3CCN(C(=O)CO)CC3)c3c2CCC3)CC1 [Example 43, 2-hydroxy-1-(4-(1-(2-oxo-2-(4-(o-tolyloxy)piperidin-1-yl)ethyl)-1,4,5,6-tetrahydrocyclopenta[c]pyrazole-3-carbonyl)piperazin-1-yl)ethanone]	14.4
O=C(Cn1nc(C(=O)N2CCC(O)CC2)c2c1CCCC2)N1CCC(Oc2cccc(Cl)c2)CC1 [Example 44, 1-(4-(3-chlorophenoxy)piperidin-1-yl)-2-(3-(4-hydroxypiperidine-1-carbonyl)-4,5,6,7-tetrahydro-1H-indazol-1-yl)ethanone]	14.9
Cc1ccccc1OC1CCN(C(=O)Cn2nc(C(=O)N3CCO[C@@H](CO)C3)c3c2CCC3)CC1 [Example 45, (R)-2-(3-(2-(hydroxymethyl)morpholine-4-carbonyl)-5,6-dihydrocyclopenta[c]pyrazol-1(4H)-yl)-1-(4-(o-tolyloxy)piperidin-1-yl)ethanone]	22.5
O=C(Cn1nc(C(=O)N2CCC(O)(CF)CC2)c2c1CCCC2)N1CCC(Oc2cccc(Cl)c2)CC1 [Example 46, 1-(4-(3-chlorophenoxy)piperidin-1-yl)-2-(3-(4-(fluoromethyl)-4-hydroxypiperidine-1-carbonyl)-4,5,6,7-tetrahydro-1H-indazol-1-yl)ethanone]	24.4
CCOC(=O)c1nn(CC(=O)N2CCC(Oc3ccccc3C)CC2)c2c1CCCC2 [Example 47, ethyl 1-(2-oxo-2-(4-(o-tolyloxy)piperidin-1-yl)ethyl)-4,5,6,7-tetrahydro-1H-indazole-3-carboxylate]	30.4
O=C(Cn1nc(C(=O)N2CC[C@@H](O)[C@@H](F)C2)c2c1CCCC2)N1CCC(Oc2cccc(Cl)c2)CC1 [Example 48, 1-(4-(3-chlorophenoxy)piperidin-1-yl)-2-(3-((3S,4R)-3-fluoro-4-hydroxypiperidine-1-carbonyl)-4,5,6,7-tetrahydro-1H-indazol-1-yl)ethanone]	132
CCOC(=O)c1nn(CC(=O)N2CCC(Oc3ccccc3C)CC2)c2c1CCC2 [Example 49, ethyl 1-(2-oxo-2-(4-(o-tolyloxy)piperidin-1-yl)ethyl)-1,4,5,6-tetrahydrocyclopenta[c]pyrazole-3-carboxylate]	139
COC(=O)c1nn(CC(=O)N2CCC(Oc3ccccc3C)CC2)c2c1CCCCC2 [Example 50, methyl 1-(2-oxo-2-(4-(o-tolyloxy)piperidin-1-yl)ethyl)-1,4,5,6,7,8-hexahydrocyclohepta[c]pyrazole-3-carboxylate]	173
CCOC(=O)c1nn(CC(=O)N2CCC(Oc3cccc(Cl)c3)CC2)c2c1CCCC2 [Example 51, ethyl 1-(2-(4-(3-chlorophenoxy)piperidin-1-yl)-2-oxoethyl)-4,5,6,7-tetrahydro-1H-indazole-3-carboxylate]	299
C[C@H]1C[C@@H](Oc2ncccc2Cl)CCN1C(=O)Cn1nc(C(=O)N2CCC(OCCO)CC2)c2c1C[C@H]1C[C@@H]21 [Example 54, 1-((2S,4S)-4-((3-chloropyridin-2-yl)oxy)-2-methylpiperidin-1-yl)-2-((3bR,4aR)-3-(4-(2-hydroxyethoxy)piperidine-1-carbonyl)-3b,4,4a,5-tetrahydro-1H-cyclopropa[3,4]cyclopenta[1,2-c]pyrazol-1-yl)ethanone]	20.4
C[C@H]1C[C@@H](Oc2ncccc2Cl)CCN1C(=O)Cn1nc(C(=O)N2CCC(O)CC2)c2c1C[C@H]1C[C@@H]21 [Example 55, 1-((2S,4S)-4-((3-chloropyridin-2-yl)oxy)-2-methylpiperidin-1-yl)-2-((3bR,4aR)-3-(4-hydroxypiperidine-1-carbonyl)-3b,4,4a,5-tetrahydro-1H-cyclopropa[3,4]cyclopenta[1,2-c]pyrazol-1-yl)ethanone]	20.8
Cc1ccccc1O[C@@H]1CCN(C(=O)Cn2nc(C(=O)N3CCC(OCCO)CC3)c3c2CCC3)[C@@H](C)C1 [Example 56, 2-(3-(4-(2-hydroxyethoxy)piperidine-1-carbonyl)-5,6-dihydrocyclopenta[c]pyrazol-1(4H)-yl)-1-((2S,4R)-2-methyl-4-(o-tolyloxy)piperidin-1-yl)ethanone]	20.2

The next molecules have a lower EC50 than those just listed; values first:

EC50 [nM]	SMILES
11.5	O=C(Cn1nc(C(=O)N2CCC(F)(CO)CC2)c2c1CCCC2)N1CCC(Oc2cccc(Cl)c2)CC1 [Example 41, 1-(4-(3-chlorophenoxy)piperidin-1-yl)-2-(3-(4-fluoro-4-(hydroxymethyl)piperidine-1-carbonyl)-4,5,6,7-tetrahydro-1H-indazol-1-yl)ethanone]
11	Cc1ccccc1OC1CCN(C(=O)Cn2nc(C(=O)N3CC[C@@H](O)[C@@H](F)C3)c3c2CCC3)CC1 [Example 40, 2-(3-((3S,4R)-3-fluoro-4-hydroxypiperidine-1-carbonyl)-5,6-dihydrocyclopenta[c]pyrazol-1(4H)-yl)-1-(4-(o-tolyloxy)piperidin-1-yl)ethanone]
8.76	Cc1ccccc1OC1CCN(C(=O)Cn2nc(C(=O)N3CC[C@H](O)[C@H](F)C3)c3c2CCC3)CC1 [Example 39, 2-(3-((3R,4S)-3-fluoro-4-hydroxypiperidine-1-carbonyl)-5,6-dihydrocyclopenta[c]pyrazol-1(4H)-yl)-1-(4-(o-tolyloxy)piperidin-1-yl)ethanone]
8.02	C[C@@H]1C[C@H](Oc2ccccc2Cl)CCN1C(=O)Cn1nc(C(=O)N2CCN(C(=O)CO)CC2)c2c1CCCC2 [Example 53, 1-((2R,4R)-4-(2-chlorophenoxy)-2-methylpiperidin-1-yl)-2-(3-(4-(2-hydroxyacetyl)piperazine-1-carbonyl)-4,5,6,7-tetrahydro-1H-indazol-1-yl)ethanone]
6.3	Cc1ccccc1OC1CCN(C(=O)Cn2nc(C(=O)N3CCN(C(=O)CO)CC3)c3c2CCCC3)CC1 [Example 38, 2-hydroxy-1-(4-(1-(2-oxo-2-(4-(o-tolyloxy)piperidin-1-yl)ethyl)-4,5,6,7-tetrahydro-1H-indazole-3-carbonyl)piperazin-1-yl)ethanone]
5.9	CCOC(=O)c1nn(CC(=O)N2CCC(Oc3ccccc3C)CC2)c2c1[C@@H]1C[C@@H]1C2 [Example 37, (3bR,4aR)-ethyl 1-(2-oxo-2-(4-(o-tolyloxy)piperidin-1-yl)ethyl)-3b,4,4a,5-tetrahydro-1H-cyclopropa[3,4]cyclopenta[1,2-c]pyrazole-3-carboxylate]
4.78	Cc1ccccc1OC1CCN(C(=O)Cn2nc(C(=O)N3CC[C@@H](O)[C@@H](F)C3)c3c2CCCC3)CC1 [Example 36, 2-(3-((3S,4R)-3-fluoro-4-hydroxypiperidine-1-carbonyl)-4,5,6,7-tetrahydro-1H-indazol-1-yl)-1-(4-(o-tolyloxy)piperidin-1-yl)ethanone]
4.52	Cc1ccccc1OC1CCN(C(=O)Cn2nc(C(=O)N3CCC(O)(CF)CC3)c3c2CCC3)CC1 [Example 35, 2-(3-(4-(fluoromethyl)-4-hydroxypiperidine-1-carbonyl)-5,6-dihydrocyclopenta[c]pyrazol-1(4H)-yl)-1-(4-(o-tolyloxy)piperidin-1-yl)ethanone]
3.95	Cc1ccccc1OC1CCN(C(=O)Cn2nc(C(=O)N3CC[C@H](O)[C@@H](F)C3)c3c2CCC3)CC1 [Example 34, 2-(3-((3S,4S)-3-fluoro-4-hydroxypiperidine-1-carbonyl)-5,6-dihydrocyclopenta[c]pyrazol-1(4H)-yl)-1-(4-(o-tolyloxy)piperidin-1-yl)ethanone]
3.54	Cc1ccccc1OC1CCN(C(=O)Cn2nc(C(=O)N3CCC(O)CC3)c3c2CCC3)CC1 [Example 33, 2-(3-(4-hydroxypiperidine-1-carbonyl)-5,6-dihydrocyclopenta[c]pyrazol-1(4H)-yl)-1-(4-(o-tolyloxy)piperidin-1-yl)ethanone]
3.09	Cc1ccccc1OC1CCN(C(=O)Cn2nc(C(=O)N3CCC(O)CC3)c3c2CCCCC3)CC1 [Example 32, 2-(3-(4-hydroxypiperidine-1-carbonyl)-5,6,7,8-tetrahydrocyclohepta[c]pyrazol-1(4H)-yl)-1-(4-(o-tolyloxy)piperidin-1-yl)ethanone]
2.94	Cc1ccccc1OC1CCN(C(=O)Cn2nc(C(=O)N3CC[C@H](O)[C@H](F)C3)c3c2CCCC3)CC1 [Example 31, 2-(3-((3R,4S)-3-fluoro-4-hydroxypiperidine-1-carbonyl)-4,5,6,7-tetrahydro-1H-indazol-1-yl)-1-(4-(o-tolyloxy)piperidin-1-yl)ethanone]
2.81	Cc1ccccc1OC1CCN(C(=O)Cn2nc(C(=O)N3CCC(F)(CO)CC3)c3c2CCC3)CC1 [Example 30, 2-(3-(4-fluoro-4-(hydroxymethyl)piperidine-1-carbonyl)-5,6-dihydrocyclopenta[c]pyrazol-1(4H)-yl)-1-(4-(o-tolyloxy)piperidin-1-yl)ethanone]
2.66	CC(=O)NC1CCN(C(=O)c2nn(CC(=O)N3CCC(Oc4ccccc4C)CC3)c3c2[C@@H]2C[C@@H]2C3)CC1 [Example 29, N-(1-((3bR,4aR)-1-(2-oxo-2-(4-(o-tolyloxy)piperidin-1-yl)ethyl)-3b,4,4a,5-tetrahydro-1H-cyclopropa[3,4]cyclopenta[1,2-c]pyrazole-3-carbonyl)piperidin-4-yl)acetamide]
1.7	C[C@@H]1C[C@H](Oc2ccccc2Cl)CCN1C(=O)Cn1nc(C(=O)N2CC[C@@H](O)[C@@H](F)C2)c2c1C[C@H]1C[C@@H]21 [Example 52, 1-((2R,4R)-4-(2-chlorophenoxy)-2-methylpiperidin-1-yl)-2-((3bR,4aR)-3-((3S,4R)-3-fluoro-4-hydroxypiperidine-1-carbonyl)-3b,4,4a,5-tetrahydro-1H-cyclopropa[3,4]cyclopenta[1,2-c]pyrazol-1-yl)ethanone]
